Source: PubChem BioAssay (NCI)
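Interpolation was linear, between the two tested concentrations surrounding the appropriate level; five concentrations were tested over 48 hours in 96-well plates. At the TGI there is no net growth.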

Key:
Test in all cases: NCI anticancer screen, dose series, 48 h
SK-MEL-2 melanoma = test system: SK-MEL-2 melanoma
SNB-78 CNS = test system: SNB-78 CNS
ACHN renal = test system: ACHN renal
DLD-1 colon = test system: DLD-1 colon
OVCAR-8 ovarian = test system: OVCAR-8 ovarian
SF-539 CNS = test system: SF-539 CNS
NCI-H460 lung = test system: NCI-H460 lung
OVCAR-4 ovarian = test system: OVCAR-4 ovarian
M14 melanoma = test system: M14 melanoma
A549 NSCLC = test system: A549 NSCLC
CCRF-CEM leukemia = test system: CCRF-CEM leukemia
OVCAR-3 ovarian = test system: OVCAR-3 ovarian
RPMI-8226 leukemia = test system: RPMI-8226 leukemia
UACC-62 melanoma = test system: UACC-62 melanoma
XF 498 CNS = test system: XF 498 CNS
SK-OV-3 ovarian = test system: SK-OV-3 ovarian
SF-268 CNS = test system: SF-268 CNS
OVCAR-5 ovarian = test system: OVCAR-5 ovarian
LOX IMVI melanoma = test system: LOX IMVI melanoma
CAKI-1 renal = test system: CAKI-1 renal
UACC-257 melanoma = test system: UACC-257 melanoma
TK-10 renal = test system: TK-10 renal
786-0 renal = test system: 786-0 renal
HT29 colon = test system: HT29 colon
COLO 205 colon = test system: COLO 205 colon
MALME-3M melanoma = test system: MALME-3M melanoma
UO-31 renal = test system: UO-31 renal
M19-MEL melanoma = test system: M19-MEL melanoma
MOLT-4 leukemia = test system: MOLT-4 leukemia
K-562 leukemia = test system: K-562 leukemia
NCI-H23 lung = test system: NCI-H23 lung
SF-295 CNS = test system: SF-295 CNS
IGROV1 ovarian = test system: IGROV1 ovarian
KM12 colon = test system: KM12 colon
HCC-2998 colon = test system: HCC-2998 colon
KM20L2 colon = test system: KM20L2 colon
EKVX NSCLC = test system: EKVX NSCLC
LXFL 529 NSCLC = test system: LXFL 529 NSCLC
NCI-H226 lung = test system: NCI-H226 lung
HOP-18 NSCLC = test system: HOP-18 NSCLC
RXF-631 renal = test system: RXF-631 renal
U251 CNS = test system: U251 CNS
SK-MEL-28 melanoma = test system: SK-MEL-28 melanoma
RXF 393 renal = test system: RXF 393 renal
SN12C renal = test system: SN12C renal
HCT-15 colon = test system: HCT-15 colon
NCI-H322M lung = test system: NCI-H322M lung
HOP-92 NSCLC = test system: HOP-92 NSCLC
SR leukemia = test system: SR leukemia
HCT-116 colon = test system: HCT-116 colon
SW-620 colon = test system: SW-620 colon
DMS 114 small cell lung = test system: DMS 114 small cell lung
SK-MEL-5 melanoma = test system: SK-MEL-5 melanoma

CC1=CC2OC3CC(OC(=O)/C=C/C=C/C(OCCC4=CC(=O)OC4)C(C)O)C(C)(C2(CO)CC1)C31CO1 (stereo not drawn)
TGI (SK-MEL-2 melanoma): 6.84 µM | TGI (SNB-78 CNS): > 100 µM | TGI (ACHN renal): 36.1 µM | TGI (DLD-1 colon): 6.11 µM | TGI (OVCAR-8 ovarian): 17.5 µM | TGI (SF-539 CNS): 4.32 µM | TGI (NCI-H460 lung): 11.3 µM | TGI (OVCAR-4 ovarian): > 100 µM | TGI (M14 melanoma): 2.9 µM | TGI (A549 NSCLC): 17.3 µM | TGI (CCRF-CEM leukemia): 7.63 µM | TGI (OVCAR-3 ovarian): 6.47 µM | TGI (RPMI-8226 leukemia): > 100 µM | TGI (UACC-62 melanoma): 5.9 µM | TGI (XF 498 CNS): 5.97 µM | TGI (SK-OV-3 ovarian): 51.6 µM | TGI (SF-268 CNS): 17.4 µM | TGI (OVCAR-5 ovarian): 26.6 µM | TGI (LOX IMVI melanoma): 7.51 µM | TGI (CAKI-1 renal): 22.1 µM | TGI (UACC-257 melanoma): 17.2 µM | TGI (TK-10 renal): 14.8 µM | TGI (786-0 renal): 6.13 µM | TGI (HT29 colon): 33.2 µM | TGI (COLO 205 colon): 8.97 µM | TGI (MALME-3M melanoma): 4.28 µM | TGI (UO-31 renal): 44 µM | TGI (M19-MEL melanoma): 13.2 µM | TGI (MOLT-4 leukemia): 7.39 µM | TGI (K-562 leukemia): 9.45 µM | TGI (NCI-H23 lung): 4.83 µM | TGI (SF-295 CNS): 13.1 µM | TGI (IGROV1 ovarian): 6.85 µM | TGI (KM12 colon): 34.9 µM | TGI (HCC-2998 colon): 8.55 µM | TGI (KM20L2 colon): 10.7 µM | TGI (EKVX NSCLC): 9.17 µM | TGI (LXFL 529 NSCLC): 4.79 µM | TGI (NCI-H226 lung): 12.8 µM | TGI (HOP-18 NSCLC): 74.3 µM | TGI (RXF-631 renal): 27.6 µM | TGI (U251 CNS): 7.24 µM | TGI (SK-MEL-28 melanoma): 6.42 µM | TGI (RXF 393 renal): 5.28 µM | TGI (SN12C renal): 23.1 µM | TGI (HCT-15 colon): 7.73 µM | TGI (NCI-H322M lung): 44.1 µM | TGI (HOP-92 NSCLC): 5.63 µM | TGI (SR leukemia): 6.66 µM | TGI (HCT-116 colon): > 100 µM | TGI (SW-620 colon): 23.7 µM | TGI (DMS 114 small cell lung): 15.3 µM | TGI (SK-MEL-5 melanoma): 1.87 µM
